Source: patent EP4722207A1, “OXOISOINDOLINYL-SUBSTITUTED TETRAHYDROPYRIMIDINEDIONE DERIVATIVE AND USE THEREOF” (Gluetacs Therapeutics (Shanghai) Co., Ltd., priority 2023, dated 2024)

Test system: MGC803
Assay: Cell viability assay (CellTiter-Meiluncell Luminescent), tumor cell proliferation, MGC803
Settings: Homo sapiens, MGC-803, 96 h, read-out: inhibitory activity (IC50, nM) against tumor cells proliferation, MGC803

- IC50: > 10000 nM
Compound: Nc1cccc2c1CN(C1CCC(=O)NC1=O)C2=O (stereo not shown) [lenalidomide, reference compound]
